Laboratory results taken from ChEMBL document CHEMBL1221311, “The synthesis and structure-activity relationship of 4-benzimidazolyl-piperidinylcarbonyl-piperidine analogs as histamine H3 antagonists” (Bioorg Med Chem Lett, 2010).

By UniProt entry, the sequences of proteins in these tests, tags left out. Where a name states a change or a piece, a line headed by the entry shows the natural chain unless it says otherwise.
UniProt Q9JI35: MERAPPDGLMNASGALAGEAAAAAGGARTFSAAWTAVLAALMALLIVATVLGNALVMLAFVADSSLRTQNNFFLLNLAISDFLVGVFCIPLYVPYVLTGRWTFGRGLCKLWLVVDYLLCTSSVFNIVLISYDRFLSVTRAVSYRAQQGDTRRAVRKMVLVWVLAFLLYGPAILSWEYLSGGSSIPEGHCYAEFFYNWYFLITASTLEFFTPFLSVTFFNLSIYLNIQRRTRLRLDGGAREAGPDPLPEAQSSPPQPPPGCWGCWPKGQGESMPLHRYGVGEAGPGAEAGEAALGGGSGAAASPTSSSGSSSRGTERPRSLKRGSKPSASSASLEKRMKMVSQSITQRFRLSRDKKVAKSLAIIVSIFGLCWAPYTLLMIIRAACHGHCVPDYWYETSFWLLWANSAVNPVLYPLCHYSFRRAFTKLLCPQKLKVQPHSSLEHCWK

Molecular target: T1, Histamine H3 receptor (Cavia porcellus, UniProt Q9JI35)
Test: Displacement of [3H]Nalpha-methylhistamine from histamine H3 receptor in guinea pig brain

**Q.** With `CN(C)CCCn1c(=O)n(C2CCN(C(=O)C3CCN(Cc4ccncc4)CC3)CC2)c2ccccc21` as the molecule, how does the Ki read?
**A.** 0.2 nM

Molecular target: T1, Histamine H3 receptor
Test: Antagonist activity at histamine H3 receptor in electrically-stimulated guinea pig ileum

**Q.** Which pA2 does the source give for `CCOCCn1c(=O)n(C2CCN(C(=O)C3CCN(Cc4ccncc4)CC3)CC2)c2ccccc21` here?
**A.** 8.7

**Q.** `Cn1c(=O)n(C2CCN(C(=O)C3CCN(Cc4ccncc4)CC3)CC2)c2ccccc21` was tested. Which pA2 did it give?
**A.** 8.3

**Q.** For `O=C(C1CCN(Cc2ccncc2)CC1)N1CCC(n2c(=O)n(CCO)c3ccccc32)CC1`, which pA2 is on record?
**A.** 8.2

**Q.** With `O=C(C1CCN(Cc2ccncc2)CC1)N1CCC(n2c(=O)n(CCN3CCCCC3)c3ccccc32)CC1` as the molecule, how does the pA2 read?
**A.** 8.9

**Q.** Which pA2 does the source give for `CN(C)CCn1c(=O)n(C2CCN(C(=O)C3CCN(Cc4ccncc4)CC3)CC2)c2ccccc21` here?
**A.** 9.3

**Q.** How did the pA2 turn out when `CCOCCCn1c(=O)n(C2CCN(C(=O)C3CCN(Cc4ccncc4)CC3)CC2)c2ccccc21` was run?
**A.** 8.5

**Q.** `O=C(C1CCN(Cc2ccncc2)CC1)N1CCC(n2c(=O)n(Cc3ccccc3)c3ccccc32)CC1` was tested. Which pA2 did it give?
**A.** 8.9

**Q.** Which pA2 does the source give for `CC(C)OCCn1c(=O)n(C2CCN(C(=O)C3CCN(Cc4ccncc4)CC3)CC2)c2ccccc21` here?
**A.** 9.3

**Q.** Which pA2 does the source give for `COCCn1c(=O)n(C2CCN(C(=O)C3CCN(Cc4ccncc4)CC3)CC2)c2ccccc21` here?
**A.** 8.8

**Q.** `O=C(C1CCN(Cc2ccncc2)CC1)N1CCC(n2c(=O)n(CCOc3ccccc3)c3ccccc32)CC1` was tested. Which pA2 did it give?
**A.** 9.1

**Q.** How did the pA2 turn out when `O=C(C1CCN(Cc2ccncc2)CC1)N1CCC(n2c(=O)n(CCN3CCOCC3)c3ccccc32)CC1` was run?
**A.** 9.1

**Q.** Which pA2 does the source give for `O=C(C1CCN(Cc2ccncc2)CC1)N1CCC(n2c(=O)[nH]c3ccccc32)CC1` here?
**A.** 8.1

**Q.** With `CN(C)CCCn1c(=O)n(C2CCN(C(=O)C3CCN(Cc4ccncc4)CC3)CC2)c2ccccc21` as the molecule, how does the pA2 read?
**A.** 9.7
